Data: PMC7934871 (JCI Insight, 2021)

Sequences of proteins named here, by UniProt entry; tags and fusion partners are left off. A change or cut given only in a name is not applied to a line headed by its entry.
UniProt P61244: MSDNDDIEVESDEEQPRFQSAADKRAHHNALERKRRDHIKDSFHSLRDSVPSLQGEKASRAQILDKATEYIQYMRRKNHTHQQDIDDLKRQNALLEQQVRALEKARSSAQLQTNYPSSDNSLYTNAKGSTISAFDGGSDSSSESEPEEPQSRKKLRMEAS

System: KPC mouse PDAC cells
Experiment: KPC mouse PDAC tumor model in C57BL/6 mice
Format: in vivo
Settings: KPC s.c. in C57BL/6 mice, i.v. 1 mg/kg every other day for 18 days (combination 0.5 mg/kg each), n = 5
Experimental: (A) Pancreatic KPC tumor cells were subcutaneously xenografted in C57BL/6 mice. The tumors were systemically treated with PS-peptides as indicated (n = 5 per group) every other day at 1 mg/kg. Combination of PS-MYC and PS-Gp130 peptides was given at 0.5 mg/kg, respectively. SD is shown. Two-way ANOVA. ****P < 0.0001. (B) Quantitative PCR showing the levels of Mmp9, Cd274, and Birc5 in pooled tumor tissues treated with the indicated peptides in A. n = 3 independent quantitative PCR experiments. SD is shown. […] (C) H&E and IF analysis of tissue sections from the tumors treated as indicated in A. Images are representative of 5 tumors per experimental group. H&E, scale bars: 100 μm. IF, scale bars: 50 μm. Right panels show the quantified Ki-67 level and the mean of vessel diameter (CD31; data include 2 fields of view per lung section). SEM is shown. […] (E) The population of IFN-γ^+ in CD8^+ T or Foxp3^+ in CD4^+ T cells in the pooled tumor tissues treated as indicated was quantified by flow cytometry. […]
Mouse care and experimental procedures were performed under pathogen-free conditions in accordance with established institutional guidance and approved IACUC protocols from Research Animal Care Committee of the City of Hope. […] Tumor growth was measured by a digital caliper every other day. […] Lungs were then analyzed for immune responses by immunostaining followed by confocal imaging. […]

## PS-MYC: PS-conjugated peptide corresponding to leucine zipper segment of MAX (amino acids 77–85) (KNHTHQQDI; phosphorothioate oligonucleotide conjugate; UniProt P61244 77-85, looked up, fragment)
  PDAC tumor growth: significantly inhibited
